Patent US8809010B2, “Method for prophylactic treatment of alzheimer's disease using inhibitors of glutaminyl cyclase and glutamate cyclases” (Probiodrug AG, priority 2003, dated 2014)
Read-outs that look alike come from different tables or passages of the source.

Sequences of proteins named here, by UniProt entry; tags and fusion partners are left off. Residues count along the entry.
UniProt Q16769, 29-361: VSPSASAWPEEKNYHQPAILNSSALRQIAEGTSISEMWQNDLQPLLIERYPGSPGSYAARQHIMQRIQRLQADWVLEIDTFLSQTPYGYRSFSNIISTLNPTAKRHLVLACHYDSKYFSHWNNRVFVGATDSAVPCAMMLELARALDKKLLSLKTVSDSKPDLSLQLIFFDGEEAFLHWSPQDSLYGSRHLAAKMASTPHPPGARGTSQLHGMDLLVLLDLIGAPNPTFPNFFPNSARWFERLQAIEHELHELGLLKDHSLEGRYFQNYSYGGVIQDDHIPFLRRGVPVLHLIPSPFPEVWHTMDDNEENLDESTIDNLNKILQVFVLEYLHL

Molecular target: T1, human QC (Homo sapiens, UniProt Q16769)
T1 construct: The cDNA of the mature QC starting with codon 38 was fused in frame with the plasmid encoded 6× histidine tag; 6xHis; made in house; host or cells: Pichia pastoris X33 (pPICZαB, secreted); also E. coli M15 (pQE-31)
Test: Continuous spectrophotometric QC assay (glutamate dehydrogenase coupled), substrate kinetics;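 note: initial rates read on a microplate reader at 30 °C, with enzyme activity quantified against an ammonia calibration curve under the same assay conditions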
Assay type: biochemical
Details: for Ki* (mM): for substrate inhibition

[1] = 0.05M Tris-HCl, pH 8.0, 0.5 M KCl

kcat | Ki* (mM) | Ki (mM) (0.05M Tris-HCl, pH 8.0) | kcat (0.05M Tris-HCl, pH 8.0) | Ki (mM) [1] | kcat [1] | Structure (SMILES)
109 ± 1 s⁻¹ | n.i. |  |  |  |  | C[C@H](NC(=O)[C@H](Cc1ccccc1)NC(=O)[C@@H](N)CCC(N)=O)C(N)=O [H-Gln-Phe-Ala-NH2]
125 ± 1 s⁻¹ | n.i. |  |  |  |  | C[C@H](NC(=O)[C@H](Cc1ccc(O)cc1)NC(=O)[C@@H](N)CCC(N)=O)C(=O)O [H-Gln-Tyr-Ala-OH]
46 ± 1 s⁻¹ | n.i. |  |  |  |  | NC(=O)CC[C@H](N)C(=O)N[C@@H](CCC(=O)O)C(=O)N[C@@H](Cc1ccc(O)cc1)C(=O)N[C@@H](Cc1ccccc1)C(N)=O [H-Gln-Glu-Tyr-Phe-NH2]
33.4 ± 0.5 s⁻¹ | n.i. | n.i. | 29.4 ± 0.5 s⁻¹ | n.i. | 31.6 ± 0.3 s⁻¹ | CC(C)C[C@H](NC(=O)[C@H](CCCNC(=N)N)NC(=O)[C@H](CCCCN)NC(=O)[C@@H](N)CCC(N)=O)C(N)=O [H-Gln-Lys-Arg-Leu-NH2]
47.0 ± 0.7 s⁻¹ | n.i. | n.i. | 50.8 ± 0.6 s⁻¹ | n.i. | 50.0 ± 0.4 s⁻¹ | C[C@H](NC(=O)[C@H](Cc1c[nH]c2ccccc12)NC(=O)[C@@H](N)CCC(N)=O)C(N)=O [H-Gln-Trp-Ala-NH2]
52.8 ± 0.8 s⁻¹ | n.i. |  |  |  |  | NC(=O)CC[C@H](N)C(=O)N[C@@H](CO)C(=O)N[C@@H](Cc1ccc(O)cc1)C(=O)N[C@@H](Cc1ccccc1)C(N)=O [H-Gln-Ser-Tyr-Phe-NH2]
55.4 ± 0.7 s⁻¹ | n.i. |  |  |  |  | NC(=O)CC[C@H](N)C(=O)N[C@@H](Cc1c[nH]cn1)C(=O)N[C@@H](Cc1ccc(O)cc1)C(=O)N[C@@H](Cc1ccccc1)C(N)=O [H-Gln-His-Tyr-Phe-NH2]

More lines, now with the values behind:

Structure (SMILES) | kcat | Ki* (mM) | Ki (mM) (0.05M Tris-HCl, pH 8.0) | kcat (0.05M Tris-HCl, pH 8.0) | Ki (mM) [1] | kcat [1]
CC[C@H](C)[C@H](NC(=O)CNC(=O)[C@H](CC(N)=O)NC(=O)[C@@H](N)CCC(N)=O)C(N)=O [H-Gln-Asn-Gly-Ile-NH2] | 56.6 ± 0.5 s⁻¹ | n.i. |  |  |  | 
C[C@H](NC(=O)[C@H](CCC(=O)O)NC(=O)[C@@H](N)CCC(N)=O)C(=O)N[C@@H](Cc1ccccc1)C(N)=O [H-Gln-Glu-Ala-Phe-NH2] | 39 ± 1 s⁻¹ | n.i. |  |  |  | 
CC[C@H](C)[C@H](NC(=O)CNC(=O)[C@H](CCCNC(=N)N)NC(=O)[C@@H](N)CCC(N)=O)C(N)=O [H-Gln-Arg-Gly-Ile-NH2] | 33.5 ± 0.4 s⁻¹ | n.i. | n.i. | 31 ± 1 s⁻¹ | n.i. | 29.8 ± 0.5 s⁻¹
CC(C)C[C@H](NC(=O)[C@H](CC(=O)O)NC(=O)[C@H](CCC(=O)O)NC(=O)[C@@H](N)CCC(N)=O)C(N)=O [H-Gln-Glu-Asp-Leu-NH2] | 45.8 ± 0.5 s⁻¹ | n.i. | n.i. | 46.6 ± 0.5 s⁻¹ | n.i. | 45.6 ± 0.5 s⁻¹
N=C(N)NCCC[C@H](NC(=O)[C@@H](N)CCC(N)=O)C(=O)N[C@@H](Cc1ccc(O)cc1)C(=O)N[C@@H](Cc1ccccc1)C(N)=O [H-Gln-Arg-Tyr-Phe-NH2] | 29.6 ± 0.3 s⁻¹ | n.i. |  |  |  | 
NC(=O)CC[C@H](NC(=O)[C@@H](N)CCC(N)=O)C(=O)N[C@@H](Cc1ccc(O)cc1)C(=O)N[C@@H](Cc1ccccc1)C(N)=O [H-Gln-Gln-Tyr-Phe-NH2] | 41.4 ± 0.4 s⁻¹ | n.i. |  |  |  | 
NC(=O)CC[C@H](N)C(=O)N[C@@H](CCC(=O)O)C(=O)N[C@@H](Cc1ccc(O)cc1)C(N)=O [H-Gln-Glu-Tyr-NH2] | 45.1 ± 0.4 s⁻¹ | n.i. |  |  |  | 
C[C@H](NC(=O)[C@H](Cc1ccc(O)cc1)NC(=O)[C@H](CCC(=O)O)NC(=O)[C@@H](N)CCC(N)=O)C(N)=O [H-Gln-Glu-Tyr-Ala-NH2] | 42.1 ± 0.4 s⁻¹ | n.i. |  |  |  | 
C[C@H](NC(=O)[C@H](C)NC(=O)[C@H](CCC(=O)O)NC(=O)[C@@H](N)CCC(N)=O)C(N)=O [H-Gln-Glu-Ala-Ala-NH2] | 46 ± 1 s⁻¹ | n.i. |  |  |  | 
